Data from patent US7744921B2, “Liposome loading with metal ions” (Celator Pharmaceuticals, Inc., priority 2001, dated 2010).

Test: Effect of buffer composition on precipitation of metal ion (20 mM histidine, triethanolamine to pH 7.4, visual inspection)
Assay type: physicochemical
Design: key: ppt: represents that the formation of a precipitate occurred after the addition of triethanolamine within a time course of 10 minutes; no ppt: represents that the formation of a precipitate did not occur after addition of triethanolamine to achieve a pH of 7.4 and within a time course of 10 minutes
Details: pH 7.4, 10 minutes
[1] = 150 mM metal in 20 mM histidine
[2] = 300 mM metal in 20 mM histidine

Nickel
no ppt: precipitation after addition of triethanolamine: Chloride [1] | precipitation after addition of triethanolamine: Sulfate [1] | precipitation after addition of triethanolamine: Chloride [2] | precipitation after addition of triethanolamine: Sulfate [2]
